Measured values: patent US20180110762A1, “Compositions Methods for Treating Chronic Kidney Disease” (Merck Sharp & Dohme Corp, priority 2015, published 2018)

Chains of the proteins cited; added tags and fusions are not shown. Residues count along the entry.
UniProt P05106, 27-788 limits assumed: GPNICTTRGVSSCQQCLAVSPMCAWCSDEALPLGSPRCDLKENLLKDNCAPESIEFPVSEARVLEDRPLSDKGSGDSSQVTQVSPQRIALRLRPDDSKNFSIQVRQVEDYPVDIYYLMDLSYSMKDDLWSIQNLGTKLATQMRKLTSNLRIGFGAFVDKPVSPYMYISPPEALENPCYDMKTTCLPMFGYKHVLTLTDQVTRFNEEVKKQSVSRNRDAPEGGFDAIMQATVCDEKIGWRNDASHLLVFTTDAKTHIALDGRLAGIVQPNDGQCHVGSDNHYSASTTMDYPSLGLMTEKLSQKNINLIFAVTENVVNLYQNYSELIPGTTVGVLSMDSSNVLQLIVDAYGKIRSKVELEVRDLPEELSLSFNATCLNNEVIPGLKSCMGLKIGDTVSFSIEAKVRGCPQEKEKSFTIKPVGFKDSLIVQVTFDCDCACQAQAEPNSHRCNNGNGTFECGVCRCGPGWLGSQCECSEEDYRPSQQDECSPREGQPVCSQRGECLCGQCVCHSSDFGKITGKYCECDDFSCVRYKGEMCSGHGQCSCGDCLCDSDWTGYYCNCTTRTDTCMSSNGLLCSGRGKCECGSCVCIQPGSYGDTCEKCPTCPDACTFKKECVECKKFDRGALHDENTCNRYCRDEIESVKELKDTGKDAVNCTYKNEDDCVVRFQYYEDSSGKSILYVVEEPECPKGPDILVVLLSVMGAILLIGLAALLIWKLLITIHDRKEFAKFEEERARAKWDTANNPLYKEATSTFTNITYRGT
UniProt P06756, 31-889 limits assumed: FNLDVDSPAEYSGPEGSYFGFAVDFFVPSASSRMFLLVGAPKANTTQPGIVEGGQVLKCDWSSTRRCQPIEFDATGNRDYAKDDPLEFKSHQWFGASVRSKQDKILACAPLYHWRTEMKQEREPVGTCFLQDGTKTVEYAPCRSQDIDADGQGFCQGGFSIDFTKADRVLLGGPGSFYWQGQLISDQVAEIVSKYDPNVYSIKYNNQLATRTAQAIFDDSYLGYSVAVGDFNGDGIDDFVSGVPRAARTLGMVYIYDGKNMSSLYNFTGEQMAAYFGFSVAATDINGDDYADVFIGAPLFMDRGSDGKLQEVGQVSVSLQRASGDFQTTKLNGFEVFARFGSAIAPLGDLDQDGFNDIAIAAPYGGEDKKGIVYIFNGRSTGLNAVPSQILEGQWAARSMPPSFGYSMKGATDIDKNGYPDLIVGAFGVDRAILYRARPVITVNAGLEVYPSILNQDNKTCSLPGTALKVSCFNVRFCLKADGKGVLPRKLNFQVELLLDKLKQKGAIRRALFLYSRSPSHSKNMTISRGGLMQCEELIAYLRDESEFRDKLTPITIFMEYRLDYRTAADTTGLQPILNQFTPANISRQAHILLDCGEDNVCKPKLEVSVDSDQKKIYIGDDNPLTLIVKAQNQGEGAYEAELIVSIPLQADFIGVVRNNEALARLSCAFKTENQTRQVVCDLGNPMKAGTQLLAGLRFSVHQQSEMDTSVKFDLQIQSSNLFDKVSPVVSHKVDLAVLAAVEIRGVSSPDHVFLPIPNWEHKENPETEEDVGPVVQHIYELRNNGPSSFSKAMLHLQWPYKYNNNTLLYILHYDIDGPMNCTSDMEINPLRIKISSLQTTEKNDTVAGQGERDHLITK
UniProt P06756, 891-1048 partner limits assumed: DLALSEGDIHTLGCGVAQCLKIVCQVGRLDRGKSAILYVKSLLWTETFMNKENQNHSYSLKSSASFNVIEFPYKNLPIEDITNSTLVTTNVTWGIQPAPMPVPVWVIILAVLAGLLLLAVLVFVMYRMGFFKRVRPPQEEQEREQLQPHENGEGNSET

Target: αvβ3 purified from 293 cells overexpressing αvβ3 (Homo sapiens, UniProt P05106+P06756)
Experiment: SPAV3 binding assay (scintillation proximity)
Conditions: read-out: SPAV3 IC50
Source text: • 1. Wheat germ agglutinin Scintillation Proximity Beads (SPA): Amersham • 2. Octylglucopyranoside: Calbiochem • 3. HEPES: Calbiochem • 4. NaCl: Fisher • 5. CaCl2: Fisher • 6. MgCl2: SIGMA • 7. Phenylmethylsulfonylfluoride (PMSF): SIGMA • 8. Optiplate: PACKARD • 9. (S)-3-(4-(2-(6-aminopyridin-2-yl)ethyl)benzamido)-2-((4-(iodo-^125I)phenyl)sulfonamido)propanoic acid as found in WO0046215 (specific activity 500-1000 Ci/mmole) • 10. Test compound • 11. Purified integrin receptor: αvβ3 was purified from 293 cells overexpressing αvβ3 (Duong et al., J. Bone Min. Res., 8:S378, 1993) according to Pytela (Methods in Enzymology, 144:475, 1987) • 12. Binding buffer: 50 mM HEPES, pH 7.8, 100 mM NaCl, 1 mM Ca^2+/Mg^2+, 0.5 mM PMSF • 13. 50 mM octylglucoside in binding buffer: 50-OG buffer
• 1. Pretreatment of SPA beads: • 500 mg of lyophilized SPA beads were first washed four times with 200 ml of 50-OG buffer and once with 100 ml of binding buffer, and then resuspended in 12.5 ml of binding buffer. • 2. Preparation of SPA beads and receptor mixture • In each assay tube, 2.5 μl (40 mg/ml) of pretreated beads were suspended in 97.5 μl of binding buffer and 20 ml of 50-OG buffer. […] Plates were counted using PACKARD TOPCOUNT • 5. % inhibition was calculated as follows: • A=total counts • B=nonspecific counts • C=sample counts […]

COc1ccc([C@H](CC(=O)O)N2CCN(CCCc3ccc4c(n3)NC(C)CC4)C2=O)cn1 (stereo partly shown)
IC50: 0.1 nM
